# According to ChEMBL document CHEMBL3102830, “Involvement of apoptosis and autophagy in the death of RPMI 8226 multiple myeloma cells by two enantiomeric sigma receptor ligands” (Bioorg Med Chem, 2014):
# Assay: Selectivity ratio of Ki for sigma-2 receptor in rat liver homogenates to Ki for sigma-1 receptor in guinea pig brain homogenates
# Assay type: tissue-based
smiles,measurement,value
COc1ccc(CN2CCN(Cc3ccccc3)CC2)cc1,Ratio Ki,342
